ChEMBL document CHEMBL2057107, “Synthesis and evaluation of aplysinopsin analogs as inhibitors of human monoamine oxidase A and B” (Bioorg Med Chem Lett, 2012)

Species on record: Homo sapiens
Assay: Selectivity ratio of IC50 for human recombinant MAO-B to IC50 for human recombinant MAO-A

For `CN1C(=N)N(C)/C(=C/c2c[nH]c3cc(Br)ccc23)C1=O`, the Ratio IC50 was 80.2.
